pCIP destab = p/CIP-EGFP fusion destabilizers, primary screen, fluorescence, F442A cells; Q05BA5; 16 h; decrease of EGFP signal, % at 10 µM; 0.01% of 290,000 active;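 active = EGFP signal decrease of at least 30% at 10 µM or well 3 SD below plate mean, unless failing retest; inactive = the rest, including hits failing retest or dose response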
PKA-R2B act = activators of PKA-R2B holoenzyme, primary screen, biochemical, fluorescence polarization, Cy5-IP20, human; AID 504700, 2011; activation, % at 11.4 µM; 0.079% of 340,000 active; cAMP-dependent protein kinase catalytic subunit beta (Homo sapiens) + cAMP-dependent …; PKA-R2B holoenzyme dissociation; R2B truncated from residue 108, S112A mutant; 0% DMSO only, 100% 113 µM cGMP;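 active = activation above a cutoff set at the mean over all compounds plus 3 SD, cut at about 18% in these data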;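 note: higher means more holoenzyme dissociation and a rise in polarization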
Yeast UUG start = yeast start codon fidelity modulation | S. cerevisiae UUG-firefly luciferase reporter, luminescence/redox ratio | activity score, % at 18.7 µM | 0.13% of 350,000 active | AID 602363;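 active means replicate mean at a twofold rise or more, about +100% in these data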;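 further: firefly luciferase made from a UUG start codon reports start codon fidelity; reporter light over untreated wells divided by growth signal over untreated wells; some hits fall short of that in this replicate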
PKA-R1A act = activators of PKA-R1A holoenzyme, primary screen, biochemical, fluorescence polarization, Cy5-IP20, bovine R1A, mouse PKAc; cAMP-dependent protein kinase type I-alpha regulatory subunit (Bos taurus) + …; PKA-R1A dissociation; scaled: DMSO 0%, 113 µM cGMP 100%; activation, % at 11.4 µM; 0.083% of 340,000 active; AID 504707, 2011;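 active = percent activation above the mean of all tested compounds plus 3 SD, cut at about 19% in these data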;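 note: higher means more PKAc released from R1A so a rise in polarization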
ABCB6 inh 2 = ABCB6 transporter inhibitors, primary screen, K562-ABCB6 cells, flow cytometry, MLPCN library | ATP-binding cassette sub-family B member 6 (Homo sapiens), Q9NP58 | K562-ABCB6 porphyrin accumulation, 1 h; stronger effect = lower value | fluorescence ratio to DMSO, % at 10 µM | 0.19% of 360,000 active | AID 602162, 2011;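 active = fluorescence ratio to DMSO below 75%, the collection mean minus 3 SD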;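 note: signal is porphyrin accumulated inside mitochondria; 100% equals median channel fluorescence of DMSO control wells; lower ratio means ABCB6 inhibition with less porphyrin fluorescence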
Exocytosis inh = LAMP-1 surface exposure blockers, TALL-104 cells – cell-based, flow cytometry, MLPCN library, primary screen; TALL-104 LAMP-1 surface exposure; cells stimulated with thapsigargin and PMA; 0.66% of 360,000 active; inhibition, % at 10 µM;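 active = inhibition above about 55%, limit read from the data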
* marks the source's active call; other numbers are inactive results; / = not tested or not shown. The list is not random: actives were taken first. Their share in the collection is about 0.94%.

Each structure is followed by: pCIP destab, Yeast UUG start, PKA-R1A act, PKA-R2B act, Exocytosis inh, ABCB6 inh 2
> COc1ccc(/C=N/Nc2cc(C)nc3ccccc23)cc1
→ -2.6, -12.2, 1.1, -12.7, 60.3*, 107.0
> O=C(C[C@@H]1CC[C@H](NC(=O)Cc2ccccn2)[C@H](CO)O1)NCCc1ccccc1
→ /, 0.9, /, /, /, /
> Cc1ccc(NC(=O)/C(=C/c2cccc([N+](=O)[O-])c2)NC(=O)C2CCCCC2)cc1
→ 1.7, -15.5, 5.5, -6.2, -2.6, 72.0*
> C#CCOCCOCCOCCNc1nc(N2CCN(C(=O)C([C@@H](C)CC)n3cc(C(N)CC(C)C)nn3)CC2)nc(N2CCN(C(=O)[C@H](CCC(=O)O)n3cc(C(N)CC(C)C)nn3)CC2)n1 (stereo partly drawn)
→ -13.9, 77.8, -8.1, -12.0, 76.4*, 104.0
> C#CCOCCOCCOCCNc1nc(N2CCN(C(=O)C([C@@H](C)CC)n3cc(C(N)CO)nn3)CC2)nc(N2CCN(C(=O)[C@H](CCC(=O)O)n3cc(C(N)CC(C)C)nn3)CC2)n1 (stereo partly drawn)
→ -4.5, 1.4, 2.1, -11.9, 1.3, 85.0
> C#CCOCCOCCOCCNc1nc(N2CCN(C(=O)[C@H](CCCCN)n3cc([C@@H](N)CO)nn3)CC2)nc(N2CCN(C(=O)[C@H](Cc3ccc(O)cc3)n3cc([C@@H](N)CC(C)C)nn3)CC2)n1
→ 3.2, 15.7, -0.3, -7.3, 67.5*, 100.0
> O=C1C(CO)C(CO)C(CO)C1CO (stereo not drawn)
→ /, -13.2, -0.8, 3.1, 69.1*, 86.0
> O=C(CCN1CCCCC1)c1ccc2c(c1)OCCO2
→ 0.6, 2.4, -9.4, -15.2, 37.9, 101.0
> O=C(CCN1CCCC1Cc1ccccc1)c1ccc2c(c1)OCCO2 (stereo not drawn)
→ -1.6, /, -17.4, -0.9, 100.2*, 84.0
> COc1ccccc1NS(=O)(=O)c1cccc(C(=O)N/N=C/c2c(C)nn(-c3ccccc3)c2N2CCCC2)c1
→ 4.6, /, -5.4, 2.7, -2.2, 74.0*
> Cc1oc(-c2ccc(Cl)cc2)cc1C(=O)NC1CCN(Cc2ccccc2)CC1
→ -21.8, -1.6, /, /, 80.1*, 91.0
> O=C1/C(=C/c2ccccc2[N+](=O)[O-])COc2ccccc21
→ -19.8, -10.9, -5.4, -5.9, 83.8*, 100.0
> Cc1ccc(/C=C2/C(=O)N(c3ccccc3)C(=S)N2C)o1
→ -13.4, /, 4.0, -2.5, 82.9*, 97.0
> CCOc1ccc(N2C(=O)/C(=C/c3ccco3)N(C)C2=S)cc1
→ -5.3, -9.8, -8.9, -4.7, 1.0, 100.0
> Cc1ccc(OCCn2cc(C#N)c3ccccc32)cc1
→ 13.5, -5.7, -6.5, -5.0, 68.0*, 96.0
> C=CCNC(=O)c1ccc(N(C)S(=O)(=O)c2ccc(OC)cc2)cc1
→ 5.5, -13.7, -9.0, -0.7, 4.9, 61.0*
> CC(=O)N1C[C@@H]2[C@H](c3ccccc31)[C@H](CO)N2S(=O)(=O)c1ccccc1
→ /, -6.7, /, /, /, /
> Cc1c(N=C2C=C(Br)C(=O)C(Br)=C2)c(=O)n(-c2ccccc2)n1C
→ -3.1, /, -5.0, 2.4, 6.7, 98.0
> Cc1c(N=C2C=CC(=O)c3ccccc32)c(=O)n(-c2ccccc2)n1C
→ -11.9, /, -8.8, 1.4, 95.2*, 104.0
> CC(=O)OCCCNc1cc(Sc2ccc(Cl)cc2)c2nonc2c1[N+](=O)[O-]
→ -7.0, /, -12.6, 6.3, 63.8*, 103.0

Record cards, from the list above. Order of values: pCIP destab	Yeast UUG start	PKA-R1A act	PKA-R2B act	Exocytosis inh	ABCB6 inh 2
Cc1ccc(OCCn2cc(C#N)c3ccccc32)cc1 across the screens: 13.5	-5.7	-6.5	-5.0	68.0*	96.0
O=C(CCN1CCCCC1)c1ccc2c(c1)OCCO2 across the screens: 0.6	2.4	-9.4	-15.2	37.9	101.0
Cc1ccc(NC(=O)/C(=C/c2cccc([N+](=O)[O-])c2)NC(=O)C2CCCCC2)cc1 across the screens: 1.7	-15.5	5.5	-6.2	-2.6	72.0*
O=C1C(CO)C(CO)C(CO)C1CO (stereo not drawn) across the screens: /	-13.2	-0.8	3.1	69.1*	86.0
COc1ccccc1NS(=O)(=O)c1cccc(C(=O)N/N=C/c2c(C)nn(-c3ccccc3)c2N2CCCC2)c1 across the screens: 4.6	/	-5.4	2.7	-2.2	74.0*

Later entries:
Each structure is followed by: pCIP destab, Yeast UUG start, PKA-R1A act, PKA-R2B act, Exocytosis inh, ABCB6 inh 2
> C[C@H](CO)N1C[C@H](C)[C@H](CN(C)C(=O)CCCN(C)C)OCCCC[C@H](C)Oc2ccc(NC(=O)c3ccccc3)cc2C1=O
→ /, 12.0, /, /, /, /
> O=C(N[C@H]1CC[C@@H](CC(=O)N2CCN(c3ccccc3)CC2)O[C@@H]1CO)c1ccccc1
→ /, 15.8, /, /, /, /
> CCCCn1c(NC(=O)c2ccccc2Cl)c(C#N)c2nc3ccccc3nc21
→ -21.8, -27.9, -8.4, 1.8, 63.4*, 91.0
> N#Cc1c(NC(=O)c2ccccc2Cl)n(Cc2ccccc2)c2nc3ccccc3nc12
→ -6.3, /, -8.9, -6.0, 104.4*, 108.0
> CC(C)NC(=O)Nc1ccc2c(c1)C(=O)N(C)[C@@H]1CC[C@H](CC(=O)NCC(F)(F)F)O[C@H]1CO2
→ /, 13.7, /, /, /, /
> CO[C@@H]1CN(C)C(=O)c2ccc(NC(C)=O)cc2OC[C@H](C)N(CC2CCCCC2)C[C@H]1C
→ /, -5.7, /, /, /, /
> CC(C)C(=O)Nc1ccc2c(c1)C(=O)N(C)[C@@H]1CC[C@H](CC(=O)NCc3cccc(F)c3)O[C@H]1CO2
→ /, 12.0, /, /, /, /
> O=C(NC(=S)Nc1cccc(O)c1)C1CCCCC1
→ /, -19.3, -1.7, -10.1, 62.0*, 78.0
> O=C(NCC[C@H]1CC[C@H](NC(=O)C2CC2)[C@H](CO)O1)c1cnccn1
→ /, -13.8, /, /, /, /
> COC(=O)CSc1nnc(SCc2ccc(OC)cc2)s1
→ 8.5, -1.9, 0.7, 2.3, -7.6, 97.0
> COc1ccc(CSc2nnc(SCc3ccc([N+](=O)[O-])cc3)s2)cc1
→ -6.1, -19.5, 18.6*, 13.5, -5.2, 100.0
> O=C(N/N=C/c1cn(-c2ccccc2)nc1-c1cc2ccccc2o1)c1cccnc1
→ -20.8, /, -12.5, -0.5, 74.8*, 88.0
> COc1cc2c(cc1OC)CN(CCC(C)c1ccc(Cl)cc1)CC2 (stereo not drawn)
→ /, 15.2, -13.8, -3.6, 64.9*, 94.0
> COc1cc2c(cc1OC)CN(Cc1ccccc1)CC2
→ 1.1, -5.2, 6.7, -8.5, -2.4, 101.0
> O=C1CSc2ccc(C(=O)Nc3cccc(S(=O)(=O)Nc4ccc(Br)cc4)c3)cc2N1
→ -6.9, /, -6.3, -10.6, 63.1*, 89.0
> O=C(O)c1ccc(NC(=O)c2cccc(S(=O)(=O)Nc3ccc(C(=O)O)cc3)c2)cc1
→ -10.7, -8.1, 1.9, 2.0, -1.2, 97.0
> Cc1ccc[n+](CC(=O)Nc2ccc(N(C)C)cc2)c1
→ -11.4, -8.6, 6.5, -0.1, 0.0, 100.0
> CN(C)c1ccc(NC(=O)C[n+]2ccccc2)cc1
→ 1.8, -13.2, 4.2, 7.0, 56.2*, 101.0
> O=C(Cc1cccnc1)N[C@H]1CC[C@@H](CCn2cc(Cc3ccccc3)nn2)O[C@H]1CO
→ /, -9.8, /, /, /, /
> COc1ccccc1-c1nn2c(-c3ccccc3Cl)nnc2s1
→ 2.9, /, /, /, /, /
> CCN(CC)c1ccc(-c2nn3c(-c4ccccc4OC)nnc3s2)cc1
→ -7.9, -19.9, -8.7, -2.5, 80.4*, 99.0
> COc1ccc(CC(=O)Nc2ccc(-c3nnc(-c4ccccc4)o3)cc2)cc1OC
→ -0.9, -1.9, -10.4, 3.0, 7.1, 87.0
> COc1ccc(CC(=O)Nc2cccc(-c3nnc(-c4ccccc4)o3)c2)cc1OC
→ -9.4, -16.4, -2.0, -9.6, 68.6*, 98.0

Bioassay records (PubChem BioAssay)
